This assay concerns the target human skin chymase (Homo sapiens, UniProt P23946). The experiment in a line: Enzyme-catalyzed hydrolysis assay (chymase inhibition). The format is biochemical. The following applies: read-out: IC50 (μM) Chymase; 10 nM enzyme, 0.7 mM Suc-Ala-Ala-Pro-Phe-pNa, pH 8.0, 37° C., 30 minutes.

By UniProt entry, the sequences of proteins in these tests, tags left out. Residues count along the entry.
UniProt P23946, 22-247 limits assumed: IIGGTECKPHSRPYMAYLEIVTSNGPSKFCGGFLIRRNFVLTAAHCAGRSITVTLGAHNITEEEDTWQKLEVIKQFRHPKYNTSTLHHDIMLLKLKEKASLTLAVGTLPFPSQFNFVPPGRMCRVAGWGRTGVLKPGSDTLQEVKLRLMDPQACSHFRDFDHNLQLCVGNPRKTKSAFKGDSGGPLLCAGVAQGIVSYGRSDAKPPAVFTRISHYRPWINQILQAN

SMILES strings stand for the structures.

With `O=C(Nc1cc2ccccc2cc1C(=O)N1CCC(c2ccncc2)C1)C(c1cccc2ccccc12)P(=O)(O)O` (stereo not shown), the IC50 came out at 1.35 µM.

Regarding `O=C(Nc1cc2ccccc2cc1CNC1CCC(O)CC1)C(c1cccc2ccccc12)P(=O)(O)O` (stereo not shown), the IC50 came out at 5.62 µM.

`O=C(Nc1ccc2c(c1)OCO2)C(c1cccc2ccccc12)P(=O)(O)O` (stereo not shown): the IC50 was 8.3 µM.

In the case of `O=C(Nc1ccc2ccccc2c1)C(c1csc2ccc(Cl)cc12)P(=O)(O)CCCc1cccc2ccccc12` (stereo not shown), the IC50 came out at 0.32 µM.

Turning to `COC(=O)CCCCCNCc1cc2ccccc2cc1NC(=O)C(c1cccc2ccccc12)P(=O)(O)O` (stereo not shown), the half-maximal inhibitory concentration (IC50) worked out at 2.4 µM.

As for `CP(=O)(O)C(C(=O)Nc1ccc2ccccc2c1)c1c(C(=O)N2CCN(C(=O)OCc3ccccc3)CC2)sc2ccccc12` (stereo not shown), the IC50 stood at 0.33 µM.

For the compound `Cc1ccc(/C=C/NC(=O)C(c2csc3ccc(Cl)cc23)P(=O)(O)O)cc1` (stereo not shown), the IC50 was determined as 0.34 µM.

Values taken from patent US7459444B2, “Inhibitors of chymase” (Janssen Pharmaceutica N.V., priority 2004, dated 2008).
